Assay results: patent publication US9636374B2, “pH-sensitive polymer-drug conjugates for targeted delivery of therapeutics” (priority 2011, dated 2017)

Legend:
[1] = Time-dependent release of BTZ from catechol polymers in buffered solutions; assay type: physicochemical; conditions: 10 mM PBS, 37° C.
Description: FIG. 3D. Time-dependent release of BTZ from the catechol polymers BPC and PC at pH 5.0, 6.5, and 7.4. The fraction of BTZ released was 30% from both polymers at pH 7.4 over 12 h, while 80% of the BTZ was released at pH 5.0 in the same period of time. Drug-polymer conjugates formed between 0.2 mM and 0.05 mM BPC or PC were used for all measurements of release in 10 mM PBS buffers at 37° C.
With confirmation of the cancer-targeting function of the biotin ligand, PEG polymers were synthesized to provide 4 catechol groups for conjugating BTZ, allowing multiple drug molecules to be loaded onto the polymeric carrier. Reference is made to Scheme 1, BPC and PC, above; and FIG. 3C.) Time-dependent release of BTZ from these catechol polymers was carried out in buffered solutions at pH 7.4, 6.5, and 5.0, mimicking the physiological pH in normal tissue and blood, the tumor extracellular environment, and subcellular endosome, respectively.

Substance: Ac-[Lys(ε-NH-catechol)]4-Gly-PEG-biotin [BPC]
- diameter of micelle-like structures (aqueous solutions (pH 7.4), before conjugation of BTZ): 30˜50 nm
- size of microstructure (pH 7.4, after the conjugation of BTZ): 50˜80 nm
- fraction of BTZ released ([1]; pH 5.0, over 12 h): 80%
- fraction of BTZ released ([1]; pH 7.4, over 12 h): 30%
